Data taken from article PMC11588046 (Proceedings of the National Academy of Sciences of the …, 2024).

Target: T1, ACVR1 (ALK2) (Homo sapiens, UniProt Q04771)
T1 sequence (Q04771 21-509): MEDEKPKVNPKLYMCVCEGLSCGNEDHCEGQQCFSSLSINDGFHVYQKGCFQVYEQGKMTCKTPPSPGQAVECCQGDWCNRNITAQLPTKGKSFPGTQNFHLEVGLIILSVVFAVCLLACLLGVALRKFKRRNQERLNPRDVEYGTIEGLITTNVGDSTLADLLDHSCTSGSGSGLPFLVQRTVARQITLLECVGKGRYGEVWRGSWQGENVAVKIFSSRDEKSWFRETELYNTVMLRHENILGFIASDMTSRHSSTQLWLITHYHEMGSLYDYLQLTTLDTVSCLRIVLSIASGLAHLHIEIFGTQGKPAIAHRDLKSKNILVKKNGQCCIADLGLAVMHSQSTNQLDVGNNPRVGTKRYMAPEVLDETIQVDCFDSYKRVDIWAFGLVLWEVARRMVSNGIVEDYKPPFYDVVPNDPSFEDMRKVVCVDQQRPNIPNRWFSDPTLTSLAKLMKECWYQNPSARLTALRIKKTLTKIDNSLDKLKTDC
Settings: read-out: ALK2 Kd; LanthaScreen binding; N/A, not active at 1 µM

Row | SMILES | Kd [nM]
1 | CNC(=O)[C@H]1C[C@H](n2c(-c3cccc(OC)c3)nc3ccc(C(=O)NCCCN4CCN(c5ccccc5)CC4)cc32)C1 [CDD-2313] | 5.6
2 | CNC(=O)[C@H]1C[C@H](n2c(-c3cc(OC)cc(OC)c3)nc3ccc(C(=O)NCCCN4CCN(c5ccccc5)CC4)cc32)C1 [CDD-2314] | 6.9
3 | CNC(=O)[C@H]1C[C@H](n2c(-c3cc(F)cc(OC)c3)nc3ccc(C(=O)NCCCN4CCN(c5ccccc5)CC4)cc32)C1 [CDD-2340] | 6.9
4 | CNC(=O)[C@H]1C[C@H](n2c(-c3cc(OC)ccc3OC)nc3ccc(C(=O)NCCCN4CCN(c5cccc(C)c5C)CC4)cc32)C1 [CDD-2420] | 0.9
5 | COc1cc(-c2nc3ccc(C(=O)NCCC(=O)O)cc3n2C2CCC2)cc(OC)c1OC [CDD-2464] | 79
6 | COc1cc(-c2nc3ccc(C(=O)NCCCO)cc3n2C2CCC2)cc(OC)c1OC [CDD-2465] | 15.4
7 | CNC(=O)[C@H]1C[C@H](n2c(-c3cc(OC)c(OC)c(OC)c3)nc3ccc(C(=O)NCCCN(C)C)cc32)C1 [CDD-2281] | 5.2
8 | CNC(=O)[C@H]1C[C@H](n2c(-c3ccc(C(N)=O)cc3)nc3ccc(C(=O)NCCCN4CCN(c5ccccc5)CC4)cc32)C1 [CDD-2339] | 34.1
9 | CNC(=O)[C@H]1C[C@H](n2c(-c3cc(OC)c(OC)c(OC)c3)nc3ccc(C(=O)NCC4CCN(C)CC4)cc32)C1 [CDD-2282] | 5.9
10 | CNC(=O)[C@H]1C[C@H](n2c(-c3ccccc3)nc3ccc(C(=O)NCCCN4CCN(c5ccccc5)CC4)cc32)C1 [CDD-2317] | 57.4
11 | CNC(=O)CCCn1c(-c2cc(OC)c(OC)c(OC)c2)nc2ccc(C(=O)NCCCN3CCN(c4ccccc4)CC3)cc21 [CDD-2316] | 51.4
12 | CNC(=O)[C@H]1C[C@H](n2c(-c3ccc(OC)c(OC)c3)nc3ccc(C(=O)NCCCN4CCN(c5cccc(C)c5C)CC4)cc32)C1 [CDD-2421] | 2.1
13 | COc1cc(-c2nc3ccc(C(=O)NCCCN4CCN(c5ccccc5)CC4)cc3n2C2CCC2)cc(OC)c1OC [CDD-2315] | 0.8
